The values below come from PubChem BioAssay AID1159614 (National Center for Advancing Translational Sciences (NCATS), 2016).

Protein sequences, listed by entry. Tags and fused reporters are not part of them.
UniProt P54803, whole entry G286D: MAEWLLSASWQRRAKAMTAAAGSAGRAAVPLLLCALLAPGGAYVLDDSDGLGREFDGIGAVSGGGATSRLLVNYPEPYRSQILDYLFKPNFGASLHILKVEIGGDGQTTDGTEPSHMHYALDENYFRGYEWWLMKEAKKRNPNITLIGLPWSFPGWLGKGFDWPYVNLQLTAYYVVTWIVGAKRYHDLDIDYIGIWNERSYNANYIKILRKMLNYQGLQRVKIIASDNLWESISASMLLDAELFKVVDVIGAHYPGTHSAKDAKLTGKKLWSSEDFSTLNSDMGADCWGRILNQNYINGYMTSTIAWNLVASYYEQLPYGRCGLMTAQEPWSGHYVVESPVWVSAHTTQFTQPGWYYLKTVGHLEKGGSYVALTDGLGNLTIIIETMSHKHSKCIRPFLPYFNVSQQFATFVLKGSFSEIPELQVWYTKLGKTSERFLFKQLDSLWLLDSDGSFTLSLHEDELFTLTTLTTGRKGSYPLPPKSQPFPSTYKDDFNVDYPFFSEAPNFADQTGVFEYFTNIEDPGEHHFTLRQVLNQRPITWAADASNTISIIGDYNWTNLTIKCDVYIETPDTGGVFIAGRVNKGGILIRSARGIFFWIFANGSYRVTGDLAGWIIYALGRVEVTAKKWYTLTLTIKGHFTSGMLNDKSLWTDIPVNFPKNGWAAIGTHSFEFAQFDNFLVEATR

Only a part is listed here, and it is no random draw. The source made the active and inactive calls. Calls follow the shape of the dose curve; as a rule, active = well fitted activation curve with a large enough effect; inconclusive = small, poorly fitted or top-dose-only effect; inactive = no such curve, though single readings can be large or run the other way.

The assay concerns the target Galactocerebrosidase (Homo sapiens) (UniProt P54803). Briefly: A Novel Cell-Based Assay to Identify Small Molecules for B -Galactocerebrosidase. Also: 0% is about no effect; nearly all actives have a fitted effect of over 65% in size. The following applies: 145M-Twi-hGALC-G270D cells (Twitcher mouse brain line with human GALC G270D), HMU-beta-Gal fluorescence, 48 h; at 114 µM (top of the series) unless noted.
Take `CN(CCCl)CCCl`: the activation was inactive: -13.7% [at 57.5 µM].

For `CCC(=O)N(c1ccccc1)C1(COC)CCN(CCc2cccs2)CC1`, the activation was inactive: -11.1%.

Take `CCC(=O)N(c1ccccc1)C1(COC)CCN(CCn2nnn(CC)c2=O)CC1`: the activation was inactive: -6.93%.
